Experimental findings from patent publication US20090269781A1 are described below.

In the assay the target is calmodulin-binding peptide (M13) of myosin light-chain kinase. As to the kind of experiment: cell-based or functional assay.

“Xenopus laevis calmodulin (CaM) (from UniProt P0DP33 2-149)” displayed a relative luminescence intensity of CPG with 1 mM histamine against background (COS-7 cells) (times background) of 3 and a time course of CPG luminescence after addition of 1 mM histamine of 10 min.
